Source: ChEMBL document CHEMBL4665792, “Design and SAR of Withangulatin A Analogues that Act as Covalent TrxR Inhibitors through the Michael Addition Reaction Showing Potential in Cancer Treatment” (J Med Chem, 2020)

Species: Homo sapiens
Conditions: time min <=30

Row | Kinact [min⁻¹] | Compound
1 | 0.0367 | CC(=O)O[C@H]1C=C([C@H](C)[C@H]2CC(C)=C(C)C(=O)O2)[C@@]2(C)CC[C@H]3[C@@H](C[C@H]4O[C@]45[C@@H](O)C=CC(=O)[C@]35C)[C@]12O
2 | 0.0237 | CC(=O)O[C@H]1C=C([C@H](C)[C@H]2CC(C)=C(C)C(=O)O2)[C@@]2(C)CC[C@H]3[C@@H](C[C@H]4O[C@]45[C@@H](OC(=O)/C=C/C(=O)N(C)C)C=CC(=O)[C@]35C)[C@]12O
